Measured values published in ChEMBL document CHEMBL1148343, “Fragment-based drug discovery” (J Med Chem, 2004).

Columns and labels:
Acetylcholinesterase = molecular target: T1, Acetylcholinesterase (Mus musculus, UniProt P21836)
T1 sequence (P21836 whole entry): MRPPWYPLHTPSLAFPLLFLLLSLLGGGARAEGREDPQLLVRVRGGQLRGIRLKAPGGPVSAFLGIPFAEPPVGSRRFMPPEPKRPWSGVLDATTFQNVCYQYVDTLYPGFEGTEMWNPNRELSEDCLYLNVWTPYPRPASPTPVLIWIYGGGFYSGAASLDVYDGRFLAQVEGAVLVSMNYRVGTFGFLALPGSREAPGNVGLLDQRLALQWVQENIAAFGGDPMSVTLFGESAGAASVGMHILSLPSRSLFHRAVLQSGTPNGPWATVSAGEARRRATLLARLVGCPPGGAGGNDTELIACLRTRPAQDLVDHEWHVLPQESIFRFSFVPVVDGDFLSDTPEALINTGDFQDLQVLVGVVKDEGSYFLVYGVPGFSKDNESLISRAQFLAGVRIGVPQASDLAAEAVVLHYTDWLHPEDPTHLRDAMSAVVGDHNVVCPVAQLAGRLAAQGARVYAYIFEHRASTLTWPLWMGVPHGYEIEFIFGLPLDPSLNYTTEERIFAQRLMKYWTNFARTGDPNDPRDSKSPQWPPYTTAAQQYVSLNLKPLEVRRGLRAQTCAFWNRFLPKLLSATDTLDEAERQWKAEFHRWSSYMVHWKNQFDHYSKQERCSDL

[1] = molecular target: T2, Tyrosine-protein phosphatase non-receptor type 1 (Homo sapiens, UniProt P18031)
T2 sequence (P18031 whole entry): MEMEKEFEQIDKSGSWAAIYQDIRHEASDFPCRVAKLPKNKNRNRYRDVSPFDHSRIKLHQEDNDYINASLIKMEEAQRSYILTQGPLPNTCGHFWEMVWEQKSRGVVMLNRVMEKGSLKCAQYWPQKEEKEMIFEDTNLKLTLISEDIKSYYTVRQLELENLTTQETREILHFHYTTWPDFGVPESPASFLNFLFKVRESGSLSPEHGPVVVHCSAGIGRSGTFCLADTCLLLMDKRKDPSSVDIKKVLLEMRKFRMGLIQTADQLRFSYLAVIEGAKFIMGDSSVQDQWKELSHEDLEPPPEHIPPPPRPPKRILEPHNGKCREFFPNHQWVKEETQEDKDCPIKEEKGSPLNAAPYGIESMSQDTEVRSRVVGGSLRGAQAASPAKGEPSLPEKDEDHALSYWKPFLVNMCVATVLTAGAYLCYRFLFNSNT

Row | Compound | Kd (Acetylcholinesterase) | Ki [1]
1 | Nc1ccc2c(c1)c(-c1ccccc1)[n+](CCCCCCc1cnnn1CCNc1c3c(nc4ccccc14)CCCC3)c1cc(N)ccc21 | 0.00041 nM | 
2 | CC(=O)NC(Cc1ccc(N(C(=O)C(=O)O)c2ccccc2C(=O)O)c2ccccc12)C(=O)NCCCCCOc1cc2ccccc2cc1C(=O)O (configuration not stated) |  | 22 nM
